This assay deals with Cruzain (Trypanosoma cruzi, UniProt P25779). Briefly: biochemical. As to conditions: Table B; unit inferred. The procedure:
Cruzain (0.1 nM) in 100 mM sodium acetate buffer (pH 5.50) containing 5 mM DTT was preincubated for 5 min at 25° C. with inhibitor.

By UniProt entry, the sequences of proteins in these tests, tags left out. Residues count along the entry.
UniProt P25779, 123-467: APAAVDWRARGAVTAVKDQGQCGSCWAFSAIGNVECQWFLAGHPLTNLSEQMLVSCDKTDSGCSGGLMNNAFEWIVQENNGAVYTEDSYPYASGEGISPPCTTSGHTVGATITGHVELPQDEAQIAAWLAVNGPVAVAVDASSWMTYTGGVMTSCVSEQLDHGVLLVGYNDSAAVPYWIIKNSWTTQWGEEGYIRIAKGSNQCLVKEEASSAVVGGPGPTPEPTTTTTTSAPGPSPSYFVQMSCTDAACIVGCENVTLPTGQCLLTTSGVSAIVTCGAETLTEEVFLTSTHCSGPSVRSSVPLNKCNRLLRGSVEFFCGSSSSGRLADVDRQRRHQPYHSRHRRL

The structures appear in SMILES notation.

For orientation: IC50 means the concentration at which inhibition is half-maximal. Higher therefore signals weaker potency. As to `CC/C(=N\NC(N)=S)c1cccc(Br)c1` [Compound 5, 3-Bromopropiophenone thiosemicarbazone], half-maximal inhibition (IC50) required 240 nM. This lies in the sub-micromolar range.

Source of the values: US8173696B2, “Inhibitors of cysteine proteases and methods of use thereof” (Baylor University, priority 2007, dated 2012).
